Our source for the EC50 values is patent publication US20140100156A1 (SANOFI, priority 2012, published 2014).

Protein sequences, listed by entry. Tags and fused reporters are not part of them. Residues count along the entry.
UniProt P43220, 24-463: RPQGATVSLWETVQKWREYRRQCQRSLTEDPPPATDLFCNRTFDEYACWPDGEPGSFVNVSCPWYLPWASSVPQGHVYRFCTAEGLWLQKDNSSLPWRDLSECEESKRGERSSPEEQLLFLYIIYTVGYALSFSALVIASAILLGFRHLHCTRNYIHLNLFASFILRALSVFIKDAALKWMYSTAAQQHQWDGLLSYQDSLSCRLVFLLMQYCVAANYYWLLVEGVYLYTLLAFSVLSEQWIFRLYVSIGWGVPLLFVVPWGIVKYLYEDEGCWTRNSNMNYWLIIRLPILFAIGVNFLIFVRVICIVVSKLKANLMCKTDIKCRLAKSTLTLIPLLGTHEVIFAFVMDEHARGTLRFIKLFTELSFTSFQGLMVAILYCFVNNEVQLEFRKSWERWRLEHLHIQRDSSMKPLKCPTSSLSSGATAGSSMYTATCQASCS
UniProt P47871, 26-477: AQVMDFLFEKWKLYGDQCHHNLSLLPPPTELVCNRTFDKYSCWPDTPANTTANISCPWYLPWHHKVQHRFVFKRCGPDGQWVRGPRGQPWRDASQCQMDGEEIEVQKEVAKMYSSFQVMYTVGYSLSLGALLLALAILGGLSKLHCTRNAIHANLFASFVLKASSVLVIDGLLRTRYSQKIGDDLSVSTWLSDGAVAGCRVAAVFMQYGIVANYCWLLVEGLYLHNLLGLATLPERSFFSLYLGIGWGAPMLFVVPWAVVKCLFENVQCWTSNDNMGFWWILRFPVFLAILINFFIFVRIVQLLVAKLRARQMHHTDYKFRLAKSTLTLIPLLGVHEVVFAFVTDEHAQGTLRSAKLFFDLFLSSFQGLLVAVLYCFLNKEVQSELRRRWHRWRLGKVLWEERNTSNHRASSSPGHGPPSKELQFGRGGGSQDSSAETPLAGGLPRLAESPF

Each structure is given as a SMILES string. pEC50: −log10 of the molar value.

The target in test [1] is T1, human GLP-1 receptor (Homo sapiens, UniProt P43220).
T1 construct: expressed in transfected cells; host or cells: HEK-293
The experiment in a line: cAMP response (HTRF) of HEK-293 cells stably expressing human GLP-1 receptor. Type of test: cell-based. The conditions noted are these: Table 5; cAMP, HEK-293; read-out: EC50 hGLP-1R.

The target of test [2] is T2, human glucagon receptor (Homo sapiens, UniProt P47871).
T2 construct: expressed in transfected cells; host or cells: HEK-293
The experiment in a line: cAMP response (HTRF) of HEK-293 cells stably expressing human glucagon receptor. The format is cell-based. The note with it: Table 5; cAMP, HEK-293; read-out: EC50 hGlucagon-R.

As for `CCCCCCCCCCCCCCCCCC(=O)N[C@@H](CCC(=O)NCCCC[C@H](NC(=O)[C@H](CCC(N)=O)NC(=O)[C@H](CCCCN)NC(=O)[C@H](CO)NC(=O)[C@H](CC(C)C)NC(=O)[C@H](CC(=O)O)NC(=O)[C@H](CO)NC(=O)[C@@H](NC(=O)[C@H](Cc1ccccc1)NC(=O)[C@@H](NC(=O)CNC(=O)[C@H](CCC(N)=O)NC(=O)[C@@H](CO)NC(=O)[C@@H](N)Cc1c[nH]cn1)[C@@H](C)O)[C@@H](C)O)C(=O)N[C@@H](CCC(=O)O)C(=O)N[C@@H](CO)C(=O)N[C@@H](CCC(N)=O)C(=O)N[C@@H](C)C(=O)N[C@@H](C)C(=O)N[C@@H](CCC(N)=O)C(=O)N[C@@H](CC(=O)O)C(=O)N[C@@H](Cc1ccccc1)C(=O)N[C@H](C(=O)N[C@@H](CCC(=O)O)C(=O)N[C@@H](Cc1c[nH]c2ccccc12)C(=O)N[C@@H](CC(C)C)C(=O)N[C@@H](CCCCN)C(=O)N[C@@H](C)C(=O)NCC(=O)NCC(=O)N1CCC[C@H]1C(=O)N[C@@H](CO)C(=O)N[C@@H](CO)C(=O)NCC(=O)N[C@@H](C)C(=O)N1CCC[C@H]1C(=O)N1CCC[C@H]1C(=O)N1CCC[C@H]1C(=O)N[C@@H](CO)C(N)=O)[C@@H](C)CC)C(=O)O` [compound 40], the negative logarithm of the EC50 (pEC50) in test [1] was 11.59; in test [2], 11.32.

In the case of `CCCCCCCCCCCCCCCC(=O)N[C@@H](CCC(=O)NCCCC[C@H](NC(=O)[C@H](CCC(N)=O)NC(=O)[C@H](CCCCN)NC(=O)[C@H](CO)NC(=O)[C@H](CC(C)C)NC(=O)[C@H](CC(=O)O)NC(=O)[C@H](CO)NC(=O)[C@@H](NC(=O)[C@H](Cc1ccccc1)NC(=O)[C@@H](NC(=O)CNC(=O)[C@H](CCC(N)=O)NC(=O)[C@@H](CO)NC(=O)[C@@H](N)Cc1c[nH]cn1)[C@@H](C)O)[C@@H](C)O)C(=O)N[C@@H](CC(=O)O)C(=O)N[C@@H](CO)C(=O)N[C@@H](CCC(N)=O)C(=O)N[C@@H](C)C(=O)N[C@@H](C)C(=O)N[C@@H](CCC(N)=O)C(=O)N[C@@H](CC(=O)O)C(=O)N[C@@H](Cc1ccccc1)C(=O)N[C@H](C(=O)N[C@@H](CCC(=O)O)C(=O)N[C@@H](Cc1c[nH]c2ccccc12)C(=O)N[C@@H](CC(C)C)C(=O)N[C@@H](CCCCN)C(=O)N[C@@H](CCCNC(=N)N)C(=O)N[C@@H](C)C(=O)NCC(=O)N1CCC[C@H]1C(=O)N[C@@H](CO)C(=O)N[C@@H](CO)C(=O)NCC(=O)N[C@@H](C)C(=O)N1CCC[C@H]1C(=O)N1CCC[C@H]1C(=O)N1CCC[C@H]1C(=O)N[C@@H](CO)C(N)=O)[C@@H](C)CC)C(=O)O` [compound 124], the results for the pEC50 in test [1] and in test [2] were 11.52 and 11.08, respectively.

As to `CCCCCCCCCCCCCCCC(=O)N[C@@H](CCC(=O)NCCCC[C@H](NC(=O)[C@H](CCC(N)=O)NC(=O)[C@H](CCCCN)NC(=O)[C@H](CO)NC(=O)[C@H](CC(C)C)NC(=O)[C@H](CC(=O)O)NC(=O)[C@H](CO)NC(=O)[C@@H](NC(=O)[C@H](Cc1ccccc1)NC(=O)[C@@H](NC(=O)CNC(=O)[C@H](CCC(N)=O)NC(=O)[C@@H](CO)NC(=O)[C@@H](N)Cc1c[nH]cn1)[C@@H](C)O)[C@@H](C)O)C(=O)N[C@@H](CCC(=O)O)C(=O)N[C@@H](CO)C(=O)N[C@@H](CCCNC(=N)N)C(=O)N[C@@H](CCCNC(=N)N)C(=O)N[C@@H](C)C(=O)N[C@@H](CCC(N)=O)C(=O)N[C@@H](CC(=O)O)C(=O)N[C@@H](Cc1ccccc1)C(=O)N[C@H](C(=O)N[C@@H](CCC(=O)O)C(=O)N[C@@H](Cc1c[nH]c2ccccc12)C(=O)N[C@@H](CC(C)C)C(=O)N[C@@H](CCCCN)C(=O)N[C@@H](CC(N)=O)C(=O)NCC(=O)NCC(=O)N1CCC[C@H]1C(=O)N[C@@H](CO)C(=O)N[C@@H](CO)C(=O)NCC(=O)N[C@@H](C)C(=O)N1CCC[C@H]1C(=O)N1CCC[C@H]1C(=O)N1CCC[C@H]1C(=O)N[C@@H](CO)C(=O)N[C@@H](CCCCN)C(N)=O)[C@@H](C)CC)C(=O)O` [compound 111], the pEC50 is 11.09 in test [1] and 11.60 in test [2].
